Source: patent publication US20240391942A1 (priority 2021, published 2024)
pIC50: −log10 of the molar value.

What was measured:
CCRF-CEM = settings: Acute lymphoid T-cell leukemia, 72 hours
REH = settings: Acute non-B or non-T cell lymphoma, 72 hours
SUP-B15 = settings: SUP-B15, Acute lymphoid B-cell leukemia, 72 hours
NOMO-1 = settings: NOMO-1, Acute myeloid leukemia (AML), 72 hours
KS-1 = settings: KS-1, Glioblastoma, 72 hours
CCF-STTG1 = settings: CCF-STTG1, Cerebral astrocytoma, 72 hours
TT = settings: Medullary thyroid carcinoma, 72 hours
AN3 CA = settings: Adenocarcinoma of the endometrium, 72 hours
RD = settings: Malignant embryonal rhabdomyosarcoma, 72 hours
IMR-32 = settings: IMR-32, Neuroblastoma, 72 hours
[1] = Pharmacokinetics in male SD rats (single IV or oral gavage)
[2] = test system: TNF-α and CD206 expression in BV2 cells; test: Immunofluorescence of TNF-α and CD206 in LPS-stimulated BV2 cells; settings: BV2, 1 μg/mL LPS, a certain concentration, 12 h
A-375 = test: Tumor cell proliferation (CellTiter-Glo); type: cell-based; settings: A-375, Melanocarcinoma, 72 hours
SK-HEP-1 = test: Tumor cell proliferation (CellTiter-Glo); type: cell-based; settings: SK-HEP-1, Liver cancer, 72 hours
A549 = test: Tumor cell proliferation (CellTiter-Glo); type: cell-based; settings: A549, Lung cancer, 72 hours
A-431 = test: Tumor cell proliferation (CellTiter-Glo); type: cell-based; settings: A-431, Skin cancer, 72 hours
NCI-H1299 = test: Tumor cell proliferation (CellTiter-Glo); type: cell-based; settings: NCI-H1299, Lung cancer, 72 hours
U-937 = test: Tumor cell proliferation (CellTiter-Glo); type: cell-based; settings: U-937, Lymphoma, 72 hours
SK-OV-3 = test: Tumor cell proliferation (CellTiter-Glo); type: cell-based; settings: SK-OV-3, Ovarian cancer, 72 hours
HCC827 = test: Tumor cell proliferation (CellTiter-Glo); type: cell-based; settings: HCC827, Lung cancer, 72 hours
ApoE−/− mice = test: Body weight and blood glucose of high-fat diet-fed ApoE−/− mice; settings: 12 weeks
[3] = test system: SH-SY5Y cells (lysosomal storage); test: Lyso-tracker staining of CBE-treated SH-SY5Y cells
HepG2 cells = test: Oil red O staining and triglycerides in oleic acid-treated HepG2 cells; settings: HepG2, 0.5 mM oleic acid, 50 nM, 24 hr
[4] = test system: α-SMA and Calponin1 expression in MRC-5 cells; test: Immunofluorescence staining of α-SMA and Calponin1 in TGF-β1-treated MRC-5 cells; settings: 24 h
MRC-5 cells = test: MTT cell viability of TGF-β1-treated MRC-5 cells
A7R5 cells = test: A7R5 cell migration capacity (scratch assay); settings: control 100%, Ang2 184%±[…]
[5] = test system: X-ray irradiated C57BL/6 mice; test: X-ray irradiation damage in C57BL/6 mice (leukocytes, body weight, saliva)
HT-29 = test: Tumor cell proliferation (CellTiter-Glo); settings: HT-29, Colon cancer, 72 hours
U-2 OS = test: Tumor cell proliferation (CellTiter-Glo); settings: Bone cancer, 72 hours
MDA-MB-231 = test: Tumor cell proliferation (CellTiter-Glo); settings: MDA-MB-231, Breast cancer, 72 hours
MCF7 = test: Tumor cell proliferation (CellTiter-Glo); settings: MCF7, Breast cancer, 72 hours
KG-1 = test: Tumor cell proliferation (CellTiter-Glo); settings: KG-1, Myeloma, 72 hours
[6] = test system: PCNA, MMP9 and Collagen-1 protein expression; test: Western blotting of PCNA, MMP9 and Collagen-1 in Ang2-treated A7R5 cells; settings: Ang2, 50 nM; control 100%, Ang2 220%±22.4% (FIG. 52A)
SH-SY5Y cells = test: MTT cell viability of CBE-treated SH-SY5Y cells; settings: 50 nM, 24 h
[7] = test system: myocardial primary fibroblasts; settings: 100 nM, anoxia 24 h; control 100%±5.0%, hypoxic group 137%±[…]
[8] = test system: α-SMA, Calponin1 and Collagen Type I expression in MRC-5 cells; test: Protein immunoblotting of fibrosis markers in TGF-β1-treated MRC-5 cells; settings: MRC-5, 5 ng/mL TGFβ1, certain concentrations, 24 h
K-562 = test: Tumor cell proliferation (CellTiter-Glo); settings: K-562, Myeloma, 72 hours
NAMALWA = test: Tumor cell proliferation (CellTiter-Glo); settings: Blood cancer, 72 hours
[9] = test system: LX-2 cells (ACTA2, COL1A1, TGFβ1 mRNA); test: RT-qPCR of fibrosis genes in TGF-β-treated hepatic stellate cells; settings: LX-2 cell, 100 nM, TGF-β 5 ng/mL, 24 hours
[10] = test system: NHCF-V cells (ACTA2, CTGF, PAI-1 mRNA); test: RT-qPCR of fibrosis genes in TGF-β-treated cardiac fibroblasts; settings: NHCF-V cell, 100 nM, TGF-β 1 ng/mL, 24 hours
[11] = test system: HRMC cells (COL16A1, COL4A1, CTGF mRNA); test: RT-qPCR of fibrosis genes in TGF-β-treated renal mesangial cells; settings: HRMC cell, 100 nM, TGF-β 1 ng/mL, 24 hours
[12] = single IV 0.1 mg/Kg (head: PAO 0.11, F2mPAO 0.08, d5PAO 0.09 mg/kg), mean
[13] = single oral gavage 0.2 mg/Kg (head: PAO 0.22, F2mPAO 0.17, d5PAO 0.19 mg/kg), mean
[14] = MRC-5, 5 ng/mL TGF-β1, different concentrations, 4 hours

Compound: [2H]c1ccc([As]=O)c([2H])c1 (stereo not drawn)
- pIC50 (CCRF-CEM): 7.50
- pIC50 (REH): 7.65
- pIC50 (SUP-B15): 7.47
- pIC50 (NOMO-1): 7.23
- pIC50 (KS-1): 7.34
- pIC50 (CCF-STTG1): 6.89
- pIC50 (TT): 6.97
- pIC50 (AN3 CA): 7.39
- pIC50 (RD): 7.59
- pIC50 (IMR-32): 7.62

Compound: [2H]c1cc([2H])c([As]=O)c([2H])c1 (stereo not drawn)
- pIC50 (CCRF-CEM): 7.62
- pIC50 (SUP-B15): 7.64
- pIC50 (KS-1): 7.51
- pIC50 (CCF-STTG1): 7.02

Compound: O=[As]c1ccccc1 (stereo not drawn)
- AUC0-last [1, 12]: 4010 ng·h/mL
- AUC0-last [1, 13]: 2314 ng·h/mL

Compound: O=[As]c1cc(F)c(F)c(F)c1 (stereo not drawn)
- CD206 expression level (immunofluorescence) versus LPS-treated group [2]: decreasing trend
- pIC50 (A-375): 7.34
- pIC50 (SK-HEP-1): 7.22
- pIC50 (A549): < 6.70
- pIC50 (A-431): < 6.70
- pIC50 (NCI-H1299): 6.78
- pIC50 (U-937): 6.92
- pIC50 (SK-OV-3): 6.73
- pIC50 (HCC827): 6.81
- random, postprandial and fasting blood glucose (ApoE−/− mice): reduced or tended to reduce
- pIC50 (REH): 7.57
- fluorescence intensity of Lyso-tracker versus 100 μM CBE-treated group ([3]; 25 nM): significantly decreased
- fluorescence intensity of Lyso-tracker versus 100 μM CBE-treated group ([3]; 50 nM): significantly decreased
- accumulation of triglycerides (HepG2 cells): significantly reduced
- α-SMA fluorescence signal intensity versus TGF-β1-treated group ([4]; MRC-5, 5 ng/mL TGF-β1, 25 nM): significant decrease
- α-SMA fluorescence signal intensity versus TGF-β1-treated group ([4]; MRC-5, 5 ng/mL TGF-β1, 50 nM): significant decrease
- cell viability (MTT) versus 5 ng/mL TGF-β1-treated group (MRC-5 cells; [14]): no significant change
- migration capacity (scratch assay) (A7R5 cells; A7R5, Ang2, 50 nM): 155%±6.4%
- migration capacity (scratch assay) (A7R5 cells; A7R5, Ang2, 100 nM): 147%±4.1%
- Salivary weight ([5]; Day 7, 15 Gy X-ray, PAO 0.3, F3PAO 0.15 mg/kg p.o. qd): 0.107 ± 0.016^Y g
- Salivary weight ([5]; Day 14, 15 Gy X-ray, PAO 0.3, F3PAO 0.15 mg/kg p.o. qd): ^##0.13 ± 0.01 g
- Salivary weight ([5]; Day −1 (before irradiation), PAO 0.3, F3PAO 0.15 mg/kg p.o. qd groups): 0.145 ± 0.002 g
- pIC50 (HT-29): 6.81
- pIC50 (U-2 OS): 7.35
- pIC50 (MDA-MB-231): 6.82
- pIC50 (MCF7): 6.82
- pIC50 (KG-1): 6.93
- Collagen-1 protein expression (WB) [6]: 104%±5.8%
- cell viability (MTT) versus 100 μM CBE-treated group (SH-SY5Y cells): significantly increased
- pIC50 (RD): 7.57

Compound: [2H]c1c([2H])c([2H])c([As]=O)c([2H])c1[2H] (stereo not drawn)
- AUC0-last [1, 12]: 4337 ng·h/mL
- AUC0-last [1, 13]: 2445 ng·h/mL
- proliferative capacity of myocardiac fibroblasts (CCK8) [7]: 97.5%±3.9%
- random, postprandial and fasting blood glucose (ApoE−/− mice): reduced or tended to reduce
- accumulation of triglycerides (HepG2 cells): significantly reduced

Compound: 3,5-Difluoro-PAO
- AUC0-inf [1, 12]: 6976 ng·h/mL
- AUCExtra [1, 12]: 4.86%
- AUMCExtra [1, 12]: 32.7%
- C0 [1, 12]: 1943 ng/mL
- MRT0-inf [1, 12]: 10.81 h
- MRT0-last [1, 12]: 7.62 h
- Tlast [1, 12]: 48.0 h
- AUC0-inf [1, 13]: 6406 ng·h/mL
- AUCExtra [1, 13]: 3.37%
- AUMCExtra [1, 13]: 12.5%
- MRT0-inf [1, 13]: 16.3 h
- MRT0-last [1, 13]: 14.8 h
- Tlast [1, 13]: 48.0 h
- Bioavailability ([1]; single oral gavage 0.2 mg/Kg versus IV 0.1 mg/Kg): 45.9%
- pIC50 (SK-HEP-1): 7.30
- pIC50 (SK-OV-3): 6.80
- Calponin1 expression (immunoblotting) versus TGFβ1 alone [8]: significant decrease
- cell viability (MTT) versus 5 ng/mL TGF-β1-treated group (MRC-5 cells; MRC-5, 5 ng/mL TGF-β1, 100 nM, 24 hours): significant decrease
- cell viability (MTT) versus 5 ng/mL TGF-β1-treated group (MRC-5 cells; [14]): no significant change
- pIC50 (K-562): 7.23
- pIC50 (NAMALWA): 7.41
- pIC50 (KG-1): 7.07
- cell viability (MTT) versus 100 μM CBE-treated group (SH-SY5Y cells): significantly increased

Compound: 3,4-Difluoro-PAO
- Relative changes in mRNA levels (vs. TGF-β treatment), ACTA2 [9]: 21%
- Relative changes in mRNA levels (vs. TGF-β treatment), COL1A1 [9]: −15%
- Relative changes in mRNA levels (vs. TGF-β treatment), TGFB1 [9]: 3%
- pIC50 (SK-HEP-1): 7.37
- pIC50 (SK-OV-3): 6.95
- Relative changes in mRNA levels (vs. TGF-β treatment), ACTA2 [10]: −69%
- Relative changes in mRNA levels (vs. TGF-β treatment), CTGF [10]: −51%
- Relative changes in mRNA levels (vs. TGF-β treatment), PAI-1 [10]: −35%
- Calponin1 expression (immunoblotting) versus TGFβ1 alone [8]: significant decrease
- pIC50 (CCRF-CEM): 7.47
- cell viability (MTT) versus 5 ng/mL TGF-β1-treated group (MRC-5 cells; [14]): no significant change
- pIC50 (K-562): 7.31
- pIC50 (NAMALWA): 7.50
- pIC50 (KG-1): 7.07
- pIC50 (KS-1): 7.38
- Relative changes in mRNA levels (vs. TGF-β treatment), COL4A1 [11]: −74%
- Relative changes in mRNA levels (vs. TGF-β treatment), COL16A1 [11]: −78%
- Relative changes in mRNA levels (vs. TGF-β treatment), CTGF [11]: −70%
- pIC50 (TT): 6.92
